Laboratory results: PubChem BioAssay AID950 (NMMLSC, 2007)
This is a selection; strong and weak results do not stand in their true shares. Active and inactive are the calls of the source. No stated cut-off is given here; in the data, active means inhibition above about 40%; inconclusive means no clear call, values can overlap the other calls; inactive means below that.

Chains of the proteins cited; added tags and fusions are not shown.
UniProt P10415, whole entry: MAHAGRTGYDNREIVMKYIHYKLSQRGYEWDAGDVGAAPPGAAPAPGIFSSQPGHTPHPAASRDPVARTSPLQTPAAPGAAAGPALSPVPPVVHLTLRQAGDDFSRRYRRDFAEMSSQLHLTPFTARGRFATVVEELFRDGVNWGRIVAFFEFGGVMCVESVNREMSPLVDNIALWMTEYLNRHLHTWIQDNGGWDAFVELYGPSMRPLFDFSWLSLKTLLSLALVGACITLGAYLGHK

Target: Apoptosis regulator Bcl-2 (Homo sapiens) (UniProt P10415)
Assay: Bcl-2 and Bim peptide interaction disruptors – biochemical, multiplexed, human Bcl-2 family, primary screen (AID 950);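 further: 0% = no compound wells with probe peptide and 100% = reference peptide inhibitor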
Conditions: Bead-based flow cytometry, Bim peptide-Bcl-2 binding; at 10 µM; active compounds read high

Structure (SMILES)	inhibition
Cc1ccccc1NP(C)(=O)Nc1ccccc1C	inactive: -4%
CP(=O)(Nc1ccc2c(c1)OCCO2)Oc1ccccc1 (centres undefined)	inactive: 9%
CCOP(C)(=S)SCC(=O)NC(C)(CC)C(=O)O (centres undefined)	inactive: -14%
O=[N+]([O-])c1cc([N+](=O)[O-])c(NCC2CCS(=O)(=O)C2)c([N+](=O)[O-])c1 (centres undefined)	inactive: -2%
CN(C)CCOC(=O)C(O)(c1ccccc1)C1CCCCC1 (centres undefined)	inactive: -2%
COc1ccc(NP(C)(=O)Oc2ccccc2OC)cc1 (centres undefined)	inactive: 4%
COc1ccc(OP(C)(=O)Nc2cccc(Br)c2)cc1 (centres undefined)	inactive: -14%
CP(=O)(Nc1ccccc1)Oc1ccc(F)cc1 (centres undefined)	inactive: -2%
CCN(CC)CCCOC(=O)C(O)(c1ccccc1)C1CCCCC1 (centres undefined)	inactive: -21%
CCOC(=O)c1ccc(NP(C)(=O)Oc2ccc(F)cc2)cc1 (centres undefined)	inactive: 1%
COc1ccc(OP(C)(=O)Nc2ccc(SC(F)(F)F)cc2)cc1 (centres undefined)	inactive: 0%
O=C(OCCN1CCN(CCOCc2ccccc2)CC1)C(O)(c1ccccc1)c1ccccc1	inactive: -5%
CP(=O)(Nc1ccccc1F)Oc1ccccc1 (centres undefined)	inactive: -7%
CC(C)c1ccc(OP(C)(=O)Nc2ccc(SC(F)(F)F)cc2)cc1 (centres undefined)	inactive: -8%
COc1ccccc1OP(C)(=O)Nc1ccc(C)cc1C (centres undefined)	inactive: -2%
CP(=O)(Nc1ccccn1)Oc1ccccc1 (centres undefined)	inactive: -7%
CCc1ccc(OP(C)(=O)O)cc1	inactive: 0%
O=[N+]([O-])c1cc([N+](=O)[O-])c(Nc2ccccn2)c([N+](=O)[O-])c1	inactive: -11%
Cc1c(NP(C)(=O)Oc2ccc(C(C)C)cc2)c(=O)n(-c2ccccc2)n1C (centres undefined)	inactive: -3%
COc1ccc(OP(C)(=O)Nc2ccccn2)cc1 (centres undefined)	inactive: -1%
CN(C)CCOC(=O)C(O)(c1ccccc1)C1CCCC1 (centres undefined)	inactive: -1%
CP(=O)(OCCOc1ccccc1)OCCOc1ccccc1	inactive: -4%
CP(=O)(Nc1ccc(Cl)cc1Cl)Oc1ccccc1 (centres undefined)	inactive: -4%

Structure (SMILES)	inhibition
Cc1nc2ccc3ccccc3c2o1.O=[N+]([O-])c1cc([N+](=O)[O-])c(O)c([N+](=O)[O-])c1	inactive: -4%
COc1ccccc1OP(C)(=O)Nc1ccc(C)c(C)c1 (centres undefined)	inactive: -7%
COc1ccc(OP(C)(=O)Nc2ccccc2Br)cc1 (centres undefined)	inactive: -10%
Cc1cc(C)cc(OP(C)(=O)Nc2cccc(C(F)(F)F)c2)c1 (centres undefined)	inactive: -1%
CCOC(=O)c1ccc(NP(C)(=O)Oc2ccc(Cl)cc2)cc1 (centres undefined)	inactive: -2%
CP(=O)(OC12CC3CC(CC(C3)C1)C2)OC12CC3CC(CC(C3)C1)C2	inactive: -13%
CN(C)C(=O)c1c([N+](=O)[O-])cc([N+](=O)[O-])cc1[N+](=O)[O-]	inactive: -2%
CC(C)(C)c1ccc(OP(C)(=O)O)cc1	inactive: 1%
COc1ccccc1OP(C)(=O)Nc1ccccc1Br (centres undefined)	inactive: -4%
CP(=O)(Nc1ccc(Cl)cc1)Oc1ccc(F)cc1 (centres undefined)	inactive: -7%
CCc1ccc(OP(C)(=O)Nc2cccnc2)cc1 (centres undefined)	inactive: 0%
CP(=O)(Oc1ccccc1)N1CCOC1=O (centres undefined)	inactive: -5%
COc1ccc(OP(C)(=O)Nc2ccc(Br)cc2)cc1 (centres undefined)	inactive: -4%
CCN(CC)CC(O)COC(=O)C(O)(c1ccccc1)C1CCCCC1 (centres undefined)	inactive: -2%
CP(=O)(Nc1ccccn1)Oc1ccc(Cl)cc1 (centres undefined)	inactive: -2%
CCOC(=O)c1ccc(NP(C)(=O)Oc2ccc(OC)cc2)cc1 (centres undefined)	inactive: -8%
CCOP(C)(=S)SCC(=O)NC(C)C(=O)O (centres undefined)	inactive: 5%
Cc1cc(C)cc(OP(C)(=O)Nc2ccc(SC(F)(F)F)cc2)c1 (centres undefined)	inactive: -6%
CP(=O)(NC(=O)Nc1ccccc1)Oc1ccccc1 (centres undefined)	inactive: -6%
CP(=O)(Oc1ccccc1)OC(c1ccccc1)C(F)(F)F (centres undefined)	inactive: -1%
Cc1cccc(C)c1OP(C)(=O)Nc1ccc(SC(F)(F)F)cc1 (centres undefined)	inactive: 6%
CP(=O)(Nc1ccccc1Br)Oc1ccccc1 (centres undefined)	inactive: -3%
COc1ccccc1OP(C)(=O)Nc1ccccc1 (centres undefined)	inactive: -5%

Structure (SMILES)	inhibition
CP(=S)(Nn1cnnc1)Oc1ccccc1 (centres undefined)	inactive: -4%
Cc1cc(C)cc(OP(C)(N)=O)c1 (centres undefined)	inactive: -2%
COc1ccc(OP(C)(=O)Nc2cccc(F)c2)cc1 (centres undefined)	inactive: 3%
COc1ccccc1OP(C)(=O)Nc1cc(Cl)ccc1C (centres undefined)	inactive: -2%
Cc1ccc(NP(C)(=O)Oc2ccccc2)c(C)c1 (centres undefined)	inactive: -4%
COc1ccccc1OP(C)(=O)Nc1ccc(C)cc1 (centres undefined)	inactive: 6%
CCOC(=O)c1ccc(NP(C)(=O)Oc2ccccc2)cc1 (centres undefined)	inactive: -1%
O=[N+]([O-])c1ccc2c(c1)C=Nc1ccccc1O2	inactive: -1%
Cc1cccc(C)c1OP(C)(N)=O (centres undefined)	inactive: -4%
CC(C)(C)c1ccc(OP(C)(=O)Nc2ccc(SC(F)(F)F)cc2)cc1 (centres undefined)	inactive: 0%
CCN(CC)CCCOC(=O)C(O)(c1ccccc1)c1ccccc1	inactive: 0%
Cc1ccc(C)c(NP(C)(=O)Oc2ccccc2)c1 (centres undefined)	inactive: 0%
CP(=O)(Nc1cccc(Br)c1)Oc1ccccc1 (centres undefined)	inactive: 1%
Cc1cc(C)cc(OP(C)(=O)Nc2ccccn2)c1 (centres undefined)	inactive: -7%
CCOC(=O)c1ccc(NP(C)(=O)Oc2cc(C)cc(C)c2)cc1 (centres undefined)	inactive: 0%
Cc1cc(C)cc(OP(C)(=O)Nc2ccc(C)cc2C)c1 (centres undefined)	inactive: -5%
CC1=NCCc2c1[nH]c1ccccc21.O=[N+]([O-])c1cc([N+](=O)[O-])c(O)c([N+](=O)[O-])c1	inactive: 0%
CP(=O)(Nc1ccc(SC(F)(F)F)cc1)Oc1ccccc1 (centres undefined)	inactive: -2%
CCCOc1ccc(NP(C)(=O)Oc2ccc(Cl)cc2)cc1 (centres undefined)	inactive: 0%
COc1ccccc1OP(C)(=O)Nc1c(C)cccc1C (centres undefined)	inactive: 0%
CN1CCCCC1COC(=O)C1(O)c2ccccc2CCc2ccccc21 (centres undefined)	inactive: -8%
Cc1nc2ccc3ccccc3c2s1.O=[N+]([O-])c1cc([N+](=O)[O-])c(O)c([N+](=O)[O-])c1	inactive: -8%
O=[N+]([O-])c1cc([N+](=O)[O-])c(-n2nnc3ccccc32)c([N+](=O)[O-])c1	inactive: 2%
